The species named for the experiment is Rattus norvegicus. Kind of experiment: Selectivity ratio of IC50 for delta opioid receptor to IC50 for mu opioid receptor in Wistar rat brain membrane. It is filed as cell membranes. The gist of the method: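 Wistar rat brain crude membranes incubated 120 min at 25 °C with peptide and 0.5 nM [3H]DAMGO (MOR) or 0.5 nM [3H][Ile5,6]deltorphin-2 (DOR) in 50 mM Tris/HCl pH 7.4 with 5 mM MgCl2, 1 mM EDTA, 100 mM NaCl, bacitracin.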

The record followed here is ChEMBL document CHEMBL1137770, “Biological activity of endomorphin and [Dmt1]endomorphin analogs with six-membered proline surrogates in position 2” (Bioorg Med Chem, 2009).

For the compound `NC(=O)[C@H](Cc1ccccc1)NC(=O)[C@H](Cc1ccccc1)N(C=O)C1CCN(C(=O)[C@@H](N)Cc2ccc(O)cc2)CC1`, the Ratio IC50 was > 5.36.
